Data: ChEMBL document CHEMBL4411296, “Design and development of Isatin-triazole hydrazones as potential inhibitors of microtubule affinity-regulating kinase 4 for the therapeutic management of cell proliferation and metastasis” (Eur J Med Chem, 2019)

Key:
Assay type in all cases: functional, cell-based
MCF7 = assay: Antiproliferative activity against human MCF7 cells assessed as cell viability after 48 hrs by MTT assay
MDA-MB-435S = assay: Antiproliferative activity against human MDA-MB-435S cells assessed as cell viability after 48 hrs by MTT assay
HepG2 = assay: Antiproliferative activity against human HepG2 cells assessed as cell viability after 48 hrs by MTT assay

Measured: Activity

COc1ccc(Cn2cc(C(=O)N/N=C3/C(=O)Nc4c(C)cccc43)nn2)cc1
active: MCF7 = Dose-dependent effect | MDA-MB-435S Dose-dependent effect | HepG2 = Dose-dependent effect
